Measurements reported in US9023876B2, “Compounds and methods for regulating integrins” (Adhaere Pharmaceuticals, Inc., priority 2010, dated 2015).

By UniProt entry, the sequences of proteins in these tests, tags left out. Residues count along the entry.
UniProt P20701, 26-1170 limits assumed: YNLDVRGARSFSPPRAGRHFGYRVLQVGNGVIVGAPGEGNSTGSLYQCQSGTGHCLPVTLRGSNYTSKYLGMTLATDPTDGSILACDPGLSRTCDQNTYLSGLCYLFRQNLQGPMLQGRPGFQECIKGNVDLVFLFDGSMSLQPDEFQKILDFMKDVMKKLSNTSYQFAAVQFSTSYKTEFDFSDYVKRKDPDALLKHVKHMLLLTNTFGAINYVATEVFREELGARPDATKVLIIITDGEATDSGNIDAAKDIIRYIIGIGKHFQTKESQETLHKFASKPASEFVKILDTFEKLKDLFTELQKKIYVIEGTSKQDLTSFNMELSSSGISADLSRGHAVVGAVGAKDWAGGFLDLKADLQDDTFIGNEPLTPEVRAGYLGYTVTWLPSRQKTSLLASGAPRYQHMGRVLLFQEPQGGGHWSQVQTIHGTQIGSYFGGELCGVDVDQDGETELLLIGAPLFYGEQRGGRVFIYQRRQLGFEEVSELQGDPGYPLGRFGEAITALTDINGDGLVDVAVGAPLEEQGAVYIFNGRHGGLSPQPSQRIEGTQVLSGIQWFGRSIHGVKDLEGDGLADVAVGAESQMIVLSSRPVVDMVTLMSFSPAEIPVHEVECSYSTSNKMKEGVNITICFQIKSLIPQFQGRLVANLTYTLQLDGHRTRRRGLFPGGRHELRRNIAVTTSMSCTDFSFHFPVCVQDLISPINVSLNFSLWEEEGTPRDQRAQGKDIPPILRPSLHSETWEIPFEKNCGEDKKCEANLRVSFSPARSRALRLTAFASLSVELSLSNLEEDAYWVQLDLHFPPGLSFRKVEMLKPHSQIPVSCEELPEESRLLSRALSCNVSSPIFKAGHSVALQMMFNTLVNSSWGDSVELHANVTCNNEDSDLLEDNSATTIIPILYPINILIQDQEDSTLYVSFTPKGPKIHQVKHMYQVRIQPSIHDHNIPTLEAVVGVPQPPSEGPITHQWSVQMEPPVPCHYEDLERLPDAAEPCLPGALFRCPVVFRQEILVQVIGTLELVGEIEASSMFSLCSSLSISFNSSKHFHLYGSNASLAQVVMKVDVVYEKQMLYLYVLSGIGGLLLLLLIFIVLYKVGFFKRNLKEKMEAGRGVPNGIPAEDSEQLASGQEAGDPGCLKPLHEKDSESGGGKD
UniProt P05107, 23-769 partner limits assumed: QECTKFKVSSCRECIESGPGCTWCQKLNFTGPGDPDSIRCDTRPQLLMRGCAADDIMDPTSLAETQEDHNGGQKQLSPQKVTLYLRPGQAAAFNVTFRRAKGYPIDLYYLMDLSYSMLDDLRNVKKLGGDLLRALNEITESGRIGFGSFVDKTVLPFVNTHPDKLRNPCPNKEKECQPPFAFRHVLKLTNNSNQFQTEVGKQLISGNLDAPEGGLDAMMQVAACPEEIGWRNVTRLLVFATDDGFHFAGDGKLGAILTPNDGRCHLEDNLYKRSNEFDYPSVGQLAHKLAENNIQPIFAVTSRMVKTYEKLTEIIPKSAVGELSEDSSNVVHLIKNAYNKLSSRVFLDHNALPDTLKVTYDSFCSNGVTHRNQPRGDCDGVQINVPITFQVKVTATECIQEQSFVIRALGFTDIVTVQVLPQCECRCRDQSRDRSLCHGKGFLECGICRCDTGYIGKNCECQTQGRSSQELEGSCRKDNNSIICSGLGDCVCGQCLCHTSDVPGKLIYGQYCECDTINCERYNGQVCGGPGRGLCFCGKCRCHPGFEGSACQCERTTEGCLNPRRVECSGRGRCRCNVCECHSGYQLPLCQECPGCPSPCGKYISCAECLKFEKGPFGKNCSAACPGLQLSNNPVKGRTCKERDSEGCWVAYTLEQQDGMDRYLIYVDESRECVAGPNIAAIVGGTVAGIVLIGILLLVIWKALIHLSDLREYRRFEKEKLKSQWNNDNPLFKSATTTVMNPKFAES

Columns and labels:
integrin CD11a/CD18 = integrin CD11a/CD18 (Homo sapiens, UniProt P20701); assay: Adhesion of K562 CD11a/CD18 cells to immobilized ICAM-1 (selectivity); settings: cell adhesion, K562 CD11a/CD18 on ICAM-1 vs K562 CD11b/CD18
Protocol: Cell adhesion assays with immobilized ligands were performed as previously described. Assays with all different K562 cell lines (K562, K562 CD11b/CD18 and K562 E320A) were performed in an identical fashion. Briefly, 384-well Highbind microtiter plates were coated with a 30 μL solution of ligand in Phosphate Buffered Saline, pH 7.4 containing 1 mM each of Ca^2+ and Mg^2+ ions (PBS^++) overnight at 4° C. Ligand Fg was coated at a concentration of […] and iC3b at […]. Heterodimer specific mAb IB4 (ascites) was coated at a 1:100 dilution. Subsequently, the non-specific sites in the wells were blocked by incubation with 1% non-fat milk in Tris Buffered Saline (TBS), pH 7.4, at room temperature for 1 h, except for the neutrophil assay, where the wells were blocked with TBS containing 1% gelatin. Next, the wells were washed three times with TBS. […] Cells remaining adherent were fixed using formaldehyde and were quantitated using imaging microscopy, as previously described. […]
Next, we determined the selectivity of compounds for integrin CD11b/CD18 over highly homologous integrin CD11a/CD18 (also known as LFA-1). […] Next, we measured the ability of LA3 to increase cell adhesion to immobilized ICAM-1, a physiologic ligand of integrin CD11a/CD18.

[1] = Solubility (use in zebrafish experiment); settings: precluded use in zebrafish experiment
From the text: To visualize effects of leukadherin treatment on leukocyte accumulation in live animals, we used transgenic Tg(mpx::eGFP) zebrafish that express GFP under a myeloid-specific peroxidase gene (mpx) promoter to specifically fluorescently tag neutrophils for live imaging of leukocyte recruitment. Tailfin transection in zebrafish larvae at 3 days postfertilization (dpf) lead to a rapid and robust recruitment of neutrophils to the site of tissue injury (FIG. 4A-C). […] Finally, to determine if the in vivo effects of leukadherin treatment were reversible, we administered LA1 and LA2 to uninjured zebrafish for 4-8 h, rinsed the zebrafish, induced tailfin injury and quantitated neutrophil accumulation 4 h post-wash.

[2] = tested on: Tg(mpx::eGFP) zebrafish larvae; assay: Zebrafish tailfin injury assay; settings: 4 h post injury; vehicle 34.6±4.5
Protocol: Transgenic Tg(mpx::eGFP) were maintained according to standard protocols. Tailfin injury in three days post fertilization (dpf) larvae was performed as described. Larvae were anesthetized by immersion in E3 with […] tricane, and tail was completely transected with a sterile microdissection scalpel in accordance with the approved protocols and were recovered for the indicated time points. Zebrafish larvae (3 dpf) were treated with compounds as described (Ref). Briefly, small molecule compounds were administered by immersing the larvae in a solution of the compounds in E3. The final concentration of DMSO was kept at <1%. For the assessment of the inflammatory response, injured larvae were analyzed at 4 h post-injury. For the post-wash assay, uninjured larvae incubated with the compounds in E3 for 4-8 h, washed into E3 and injured. Larvae were analyzed using a Leica DMI6000B microscope and an Hamamatsu Orca-3CCD camera using Volocity. Excitation was performed using the laser at 488 nm and the images were analyzed using Volocity. The number of fluorescent neutrophils at the site of inflammation were counted by eye in a blinded fashion. […]

B6 male mice = assay: Renal I/R injury in mice; settings: given 30 min prior to I/R injury, 24 h post-ischemia, vs DMSO; not shown
Protocol: Leukadherins reduce renal I/R injury. To evaluate use of leukadherins in the I/R injury induced changes in the kidney function of WT mice, we performed another experiment. B6 male mice (8-12 weeks of age) were anesthetized and kept on a heating pad to keep them at a constant 37° C. temperature. Next, an abdominal incision was made and the renal pedicles were occluded bilaterally with a nontraumatic vascular clamp for 30 minutes, the clamp then removed and the surgical incision was closed. Sham surgery was performed with an identical procedure but without application of the clamps. Renal I/R injury was assessed at 24 h post-ischemia by measuring the serum creatinine levels. Mouse sera from the tail incision was used for the analyses of sCr (and BUN levels (not shown)) using manual kits (Stanbio Laboratory).

CCOC(=O)CN1C(=O)SC(=Cc2ccc(-c3ccc(Cl)cc3Cl)o2)C1=O
selectivity for integrin CD11b/CD18 over CD11a/CD18 (integrin CD11a/CD18): two-fold higher selectivity
solubility [1]: lower solubility

O=C(O)c1ccc(-c2ccc(C=C3SC(=O)N(c4ccccc4)C3=O)o2)cc1
neutrophil accumulation in the zebrafish tailfin (number of neutrophils) [2]: 13.3±2.1
serum creatinine (sCr) levels (B6 male mice): significant reduction
